Earlier results, collected in paper PMC8716319 (Toxicology, 2020).
Marks after values point to notes of the source that are not given here.

Tested on: human liver microsomes
Conditions: 5-hydroxymethyl-meloxicam, ref Chesne et al., 1998, cited from earlier work

Cc1cnc(NC(=O)C2=C(O)c3ccccc3S(=O)(=O)N2C)s1 [meloxicam]
Vmax1 (human liver microsomes): 34 ± 24^d pmol/min/mg protein
Vmax2 (low affinity activity): 140 ± 84^d pmol/min/mg protein
